Measured values as given in publication PMC3711744 (The Journal of neuroscience : the official journal of the …, 2013).

Biological target: purified mGluR1a-CT (rat, UniProt P23385 841-1199)
Experiment: pull-down

B1: GST-CaMKIIα-CD(L91-S272) (domain or fragment, UniProt P11275 91-272, looked up)
chain: LVTGGELFEDIVAREYYSEADASHCIQQILEAVLHCHQMGVVHRDLKPENLLLASKLKGAAVKLADFGLAIEVEGEQQAWFGFAGTPGYLSPEVLRKDPYGKPVDLWACGVILYILLVGYPPFWDEDQHRLYQQIKAGAYDFPSPEWDTVTPEAKDLINKMLTINPSKRITAAEALKHPWIS
B1: binds.
